Data on five compounds can be found in patent US11655239B2 (SHANGHAI INSTITUTE OF MATERIAL MEDICA, CHINESE ACADEMY OF …, priority 2019, dated 2023).

Amino acid sequences for entries named in this document (tags omitted). Residues count along the entry.
UniProt Q16832, 563-849 limits assumed: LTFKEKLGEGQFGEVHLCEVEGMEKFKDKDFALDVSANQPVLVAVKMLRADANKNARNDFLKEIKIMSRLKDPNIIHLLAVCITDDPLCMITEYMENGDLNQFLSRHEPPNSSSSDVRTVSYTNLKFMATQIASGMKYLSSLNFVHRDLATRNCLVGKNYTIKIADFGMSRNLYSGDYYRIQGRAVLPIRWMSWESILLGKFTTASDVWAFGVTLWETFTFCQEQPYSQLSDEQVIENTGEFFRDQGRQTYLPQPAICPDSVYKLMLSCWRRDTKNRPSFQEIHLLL

Each structure is given as a SMILES string. pIC50: −log10 of the molar value.

In general, pIC50 refers to −log10 of the IC50, conventionally taken in molar units.

The target in this test is DDR2 (Homo sapiens (Human), UniProt Q16832). Briefly: DDR2 enzyme activity test (ELISA). As to conditions: read-out: DDR2 IC50. It counts as biochemical. As for the experimental part: The optical rotation and the inhibitory activity against DDR2 enzyme of the compounds S11-A and S11-B obtained by the resolution in Example 12, and the chirally synthesized compounds S11-A′ and S11-B′ in Example 13 were tested (referred to the operation in Effect example 1), and the results are shown in Table 3 below:
Detection method: Enzyme-linked immunosorbent assay (ELISA)
Test receptor tyrosine kinase: DDR2
The kinase used in the experiment was obtained by our laboratory using the insect baculovirus expression system to express and purify the recombinant protein containing the protein kinase region; polyglutamic acid-tyrosine peptide segment [Poly(Glu, Tyr) 4:1] and sodium vanadate were purchased from Sigma; the anti-phosphorylated monoclonal antibody PY99 was purchased from Santa Cruz; horseradish peroxidase labeled goat anti-murine secondary antibody was purchased from Calbiochem; ATP and OPD were purchased from Sangon Biotech (Shanghai) Co., Ltd.; the remaining reagents were purchased from Sinopharm Chemical Reagent Co., Ltd. The reaction ELISA plate (#2592) was purchased from Corning. The full-wavelength microplate reader for experiment reading was a product of Molecular Device, model: SpectraMax 190; the experimental water was distilled water produced by Sinopharm Group.
The compound was centrifuged at 12,000 g for 5 min, and DMSO was added to prepare a 10^-2M stock solution, which was vortexed evenly, then sonicated for 10 min and stored at −40° C. for later use. During the test, the compound was diluted with DMSO from the stock solution to 100 times the test concentration (the DMSO concentration in the system was 1%).
1) Enzyme reaction substrate Poly(Glu, Tyr) 4:1 was diluted to 20 μg/mL with potassium-free PBS (10 mM sodium phosphate buffer, 150 mM NaCl, pH 7.2-7.4), and the microtiter plate was coated with 125 μL/well and placed at 37° C. for 12-16 hours of reaction. The liquid in the well was discard. The plate was washed three times with T-PBS (potassium-free PBS containing 0.1% Tween-20, 200 μL/well), 5 minutes each time. The ELISA plate was dried in an oven at 37° C. for 1 to 2 hours.
2) Reaction buffer (50 mM HEPES pH 7.4, 50 mM MgCl2, 0.5 mM MnCl2, 0.2 mM Na3VO4, 1 mM DTT) diluted ATP solution (49 μL) was added to each well, 1 μL of the compound to be tested was added to each well, and then 50 μL of DDR2 kinase domain recombinant protein diluted in the reaction buffer was added to start the reaction. Two control wells without ATP were set in each experiment. The plate placed on a shaker (100 rpm) at 37° C. for 1 hour of reaction. The liquid in the well was discarded and the plate was washed three times with T-PBS.
3) Antibody PY99 dilution solution (the antibody was diluted 1:500 with T-PBS containing BSA 5 mg/mL) was added at 100 μL/well, and shaken on a shaker at 37° C. for 0.5 hour of reaction. The liquid in the well was discarded and the plate was washed three times with T-PBS.
4) Horseradish peroxidase labeled goat anti-murine secondary antibody dilution solution (the antibody is diluted 1:2000 with T-PBS containing BSA 5 mg/ml) was added at 100 μL/well, and shaken on a shaker at 37° C. for 0.5 hour of reaction. […]
6) 2M H2SO4 was added at 50 μL/well to stop the reaction, and a tunable wavelength microplate reader VERSAmax was used for reading at a wavelength of 490 nm.
The IC50 value was obtained by four-parameter regression using the software that came with the microplate reader.
With `C[C@H](NC(=O)c1cccc(C(F)(F)F)c1)c1ccc(C2CC2)c(-c2ccc3nc(Nc4cnn(C5CCN(C)CC5)c4)ncc3c2)c1`, the pIC50 was 8.09.
The same measure for `C[C@@H](NC(=O)c1cccc(C(F)(F)F)c1)c1ccc(C2CC2)c(-c2ccc3nc(Nc4cnn(C5CC5)c4)ncc3c2)c1`: 6.47; for `C[C@H](NC(=O)c1cccc(C(F)(F)F)c1)c1ccc(C2CC2)c(-c2ccc3nc(Nc4cnn(C5CC5)c4)ncc3c2)c1`: 7.51.
For `C[C@H](NC(=O)c1ccc(C2CC2)c(-c2ccc3nc(Nc4cnn(C5CC5)c4)ncc3c2)c1)c1cccc(C(F)(F)F)c1`, the negative-log IC50 (pIC50) is 7.00.
Then `C[C@@H](NC(=O)c1ccc(C2CC2)c(-c2ccc3nc(Nc4cnn(C5CCN(C)CC5)c4)ncc3c2)c1)c1cccc(C(F)(F)F)c1`, with 8.33.
